Laboratory results: PubChem BioAssay AID588475 (Sanford-Burnham Center for Chemical Genomics, 2011)
The entries are a selection whose mix differs from that of the whole data set. Activity calls are given as the source filed them.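 How the source made its calls: active means inhibition of the ligand-induced calcium signal above about 50% at the single tested concentration (limit read from the data); inactive means the rest.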

Experiment: blockers of CRF-evoked CRF-R2/CRF-BP calcium response – cell-based, HEK293, calcium dye fluorescence, uHTS, primary screen (AID 588475)
Conditions: CRF-induced calcium fluorescence, at 11.8 µM, hits give high values

Structure (SMILES) | inhibition
COc1cc(C(=O)NCC2(N3CCOCC3)CCCCC2)cc(Cl)c1OC(C)C | inactive: -52.4%
O=[As](O)(O)c1cccnc1 | inactive: -7.31%
O=C(OC1CN2CCC1CC2)c1ccc(Cl)cc1 (stereo not drawn) | inactive: -9.01%
CCOP(=O)(Nc1cccc2ccccc12)OCC | inactive: -24.1%
COc1cc(C2NCCC3(OCCO3)C2(C)C)cc(OC)c1OC (stereo not drawn) | inactive: -5.09%
CCCOP(=S)(Nc1nc(N)cc(=O)[nH]1)OCCC | inactive: -1.37%
Nc1cccc2c([As](=O)(O)O)cccc12 | inactive: -36.2%
Cc1ccc(NCCc2c([N+](=O)[O-])cc([N+](=O)[O-])cc2[N+](=O)[O-])cc1 | inactive: -17.4%
CC(C)(C)C(=O)NC(Sc1ncccn1)C(Cl)(Cl)Cl (stereo not drawn) | inactive: -5.68%
O=P1(N(CCCl)CCCl)NCCC(C(F)(F)F)O1 (stereo not drawn) | inactive: 25.2%
Clc1n[nH]nc1-c1nn[nH][15n]1 | inactive: 2.66%
CN(CCCl)Cc1cc(Cl)c(NC2=NCCN2)c(Cl)c1 | inactive: -13.6%
CCOP(=O)(Nc1ccc(C)cn1)OCC | inactive: -3.03%
CCOP(=O)(NC(=NC(C)c1ccccc1)NC(C)c1ccccc1)OCC (stereo not drawn) | inactive: 14.6%
O=P1(Nc2ccccn2)COc2ccccc2OC1 | inactive: 5.55%
CCC1=CC2Cc3nc4ccc(Cl)cc4c(N)c3C(C1)C2 (stereo not drawn) | inactive: 3.69%
CC1(CBr)Cn2c(nc3ccccc3c2=O)S1 (stereo not drawn) | inactive: 10.6%
CC(C)/C=N\N=C(\N)N[N+](=O)[O-] | inactive: 5.49%
CN(C(=O)Cc1ccc(Cl)c(Cl)c1)[C@@H]1CCCC[C@H]1N1CCCC1 | inactive: -0.62%
COc1ccccc1CNC(=O)COC(=O)C(O)(c1ccccc1)c1ccccc1 | inactive: 2.78%
CCCC1OP(=O)(Nc2ccccc2)OCC1CC (stereo not drawn) | inactive: 5.62%
O=C(/C=C/c1ccccc1)OC1CN2CCC1CC2 (stereo not drawn) | inactive: 2.91%
CN(C)C1(CNC(=O)c2ccc(S(C)(=O)=O)cc2)CCCCC1 | inactive: 19.1%
CC1CCC(C(C)C)C(OP(=O)(Nc2ccccn2)c2ccccc2)C1 (stereo not drawn) | inactive: -30.8%
Cc1ccc(C(=O)OC2CN3CCC2CC3)cc1 (stereo not drawn) | inactive: -3.09%

Structure (SMILES) | inhibition
Cc1nn(-c2ccccc2)c2c1P(=O)(N1CCOCC1)N(C)C(c1ccccc1)=N2 (stereo not drawn) | inactive: 8.58%
O=P1(Nc2ccc(Br)cn2)COc2ccccc2OC1 | inactive: -20.8%
NS(=O)(=O)c1cccc(NC(=O)COC(=O)C(O)(c2ccccc2)c2ccccc2)c1 | inactive: 0.05%
O=[As](O)(c1cccs1)c1cccs1 | inactive: -0.02%
Cc1ccc(OCC(=O)OC2CN3CCC2CC3)cc1 (stereo not drawn) | inactive: 6.33%
Nc1cccc([As](=O)(O)c2ccccc2)c1 | inactive: 14.6%
O=P1(Nc2ncccn2)COc2ccccc2OC1 | inactive: 15%
Cc1cc(SC(NC(=O)c2ccccc2)C(Cl)(Cl)Cl)nc(C(C)C)n1 (stereo not drawn) | inactive: 14.1%
CCCCOc1ccc(C(=O)NCC2(N3CCCCC3)CCCCC2)cc1OC | inactive: 30.3%
COP(=O)(OC)N1CC1c1ccccc1 (stereo not drawn) | inactive: 31%
CC1CCNP(=O)(N(CCCl)CCCl)O1 (stereo not drawn) | inactive: 3.14%
CCOC(=O)Nc1ccc([As](=O)(O)O)c(O)c1 | inactive: -5.85%
O=C(O)C(O)c1ccc(N(CCCl)CCCl)cc1 (stereo not drawn) | inactive: 18%
O=[N+]([O-])c1ccc(Nc2ccc(Oc3ccc([N+](=O)[O-])cc3[N+](=O)[O-])cc2)c([N+](=O)[O-])c1 | inactive: 14.2%
O=P(Nc1ccccn1)(c1cccc2ccccc12)c1cccc2ccccc12 | inactive: -69.4%
Cc1cc(SC(NC=O)C(Cl)(Cl)Cl)ncn1 (stereo not drawn) | inactive: -7.94%
CCOC(=O)Nc1cccc([As](=O)(O)O)c1 | inactive: -6.71%
O=C(Nc1ccncc1[N+](=O)[O-])c1ccc([N+](=O)[O-])cc1[N+](=O)[O-] | inactive: 6.62%
O=C(COc1ccccc1)OC1CN2CCC1CC2 (stereo not drawn) | inactive: 0.73%
O=C(O)C(=O)c1ccc(N(CCCl)CCCl)cc1 | inactive: 3.45%
COP1(=S)c2c(C)nn(CCC#N)c2N=C(c2ccc(F)cc2)N1C (stereo not drawn) | inactive: 12.2%
CCC(C)N(CC(C)C)C(=S)SC(NC(C)=O)C(Cl)(Cl)Cl (stereo not drawn) | inactive: 7.18%
CCOC(=O)c1ccc(NC(=O)C(C)(CCl)SC)cc1 (stereo not drawn) | inactive: 0.72%
CSc1ccc(Nc2c([N+](=O)[O-])cc([N+](=O)[O-])cc2[N+](=O)[O-])cc1 | inactive: 11.9%
O=C(OC1CN2CCC1CC2)c1cccc([N+](=O)[O-])c1 (stereo not drawn) | inactive: 1.1%

Structure (SMILES) | inhibition
COc1cc(I)ccc1[As](=O)(O)O | inactive: -1.89%
COc1ccc2nc(NP(=O)(c3ccccc3)c3ccccc3)sc2c1 | inactive: 0.19%
O=P1(N(CCCl)CCCl)Nc2ccccc2N1 | inactive: -21.4%
O=P1(N(CCCl)CCCl)OCCCN1CCCl (stereo not drawn) | inactive: -4.53%
Cc1cc(=O)[nH]c(N[N+](=O)[O-])n1 | inactive: 4.6%
O=C(OC1CN2CCC1CC2)C12CC3CC(CC(C3)C1)C2 (stereo not drawn) | inactive: -11.9%
Cc1c2c(nc3ccccc13)SC(C(Cl)Cl)C2 (stereo not drawn) | inactive: -10.3%
COc1ccc(N/C(=N/P(=O)(N2CCOCC2)N2CCOCC2)N2CCOCC2)cc1 | inactive: -5.85%
O=[N+]([O-])c1cc(Oc2ccc([N+](=O)[O-])cc2C(F)(F)F)cc([N+](=O)[O-])c1 | inactive: -30.2%
Cc1ccc2nc3c(c(C)c2c1)CC(C(Cl)Cl)S3 (stereo not drawn) | inactive: -44.6%
CC(Cc1ccc(O)cc1)NCC(O)c1cc(O)cc(O)c1 (stereo not drawn) | inactive: -0.64%
Cc1ccc(OP(=O)(Nc2ccc([N+](=O)[O-])cn2)Oc2ccc(C)cc2)cc1 | inactive: -7.61%
COc1cc(C(=O)NCC2(N3CCOCC3)CCCCC2)ccc1OCC(C)C | inactive: 1.48%
O=[N+]([O-])c1ccc(-c2cc([N+](=O)[O-])c(O)c([N+](=O)[O-])c2)cc1 | inactive: 30.6%
C[As](=O)(O)c1cccc(C(=O)O)c1 | inactive: 6.45%
O=[As](O)(c1ccc(O)cc1)c1ccccc1O | inactive: 13.4%
O=[N+]([O-])c1cc([N+](=O)[O-])c(-c2ccn[nH]2)s1 | inactive: 6.5%
O=C(OC1CN2CCC1CC2)c1cccc2[nH]cnc12 (stereo not drawn) | inactive: -3.26%
CCN(CC)C(=S)SC(NC=O)C(Cl)(Cl)Cl (stereo not drawn) | inactive: 0.5%
CC(C)NC(=O)NP(=O)(Oc1ccccc1)Oc1ccccc1 | inactive: 38.1%
CC(C)c1ccc(OP(=O)(Nc2ccccn2)Oc2ccccc2F)cc1 (stereo not drawn) | inactive: 48.7%
COC(=O)C1(C)COP(=O)(N2CCCCCC2)OC1 (stereo not drawn) | inactive: 15.3%
ClCCSc1nnc(-c2cccnc2)o1 | inactive: -1%
